Measured values published in paper PMC5844868, “Increased intracellular activity of MP1102 and NZ2114 against Staphylococcus aureus in vitro and in vivo” (Scientific Reports, 2018).

Assays:
MSSA ATCC25923 = experiment: Mouse peritonitis model; assay type: in vivo; conditions: 20 mg/kg and 10 mg/kg dose, data not shown
Method: The mice were infected by peritoneal injection with different S. aureus strains, including MSSA ATCC25923 (5 × 10^8 CFU), MRSA ATCC43300 (5 × 10^8 CFU) and high virulent CVCC546 (5 × 10^7 CFU), and treated with a single dose of drugs ([…], 20, 30 and 40 mg/kg for ATCC43300 and CVCC546) at 10 min after infection. Twenty-four hours after treatment, the mice were killed and peritoneal fluids were obtained by washing with 5 ml ice-cold PBS. The total number of bacteria in the fluids was determined before any further procedures and then divided into two equal fractions of 1.5 ml each for the following purposes: i) for extracellular bacteria quantification, one fraction was centrifuged for 10 min at 4 °C (300 g) and the supernatant CFU count was quantified and ii) for intracellular bacteria quantification, the other fraction was centrifuged for 5 min at 4 °C (1,000 rpm). The cells were collected and treated with 100 μg/ml gentamicin (MSSA ATCC25923) or 50 μg/ml lysostaphin (MRSA ATCC43300 and high virulent CVCC546) for 1 h at 37 °C to kill extracellular bacteria. The cells were washed twice with ice-cold PBS to remove any anti-extracellular bacterial drug. Subsequently, the cells were lysed and counted as described above for the in vitro experiment method[14],[54].

IL-1β = experiment: Cytokine ELISA in S. aureus-infected RAW 264.7 cells; assay type: cell-based, mouse; conditions: 25 μg/ml, 24 h after infection with MRSA ATCC43300; range over treatments
Method: To investigate the effects of MP1102 and NZ2114 on cytokine levels in cells infected with S. aureus, RAW264.7 cells (2.5 × 10^5 cells/ml) seeded into 12-well plates were incubated with MRSA ATCC43300 (MOI = 100:1) for 30 min followed by treatment with 50 μg/ml lysostaphin for 1 h to remove non-phagocytosed bacteria. The cells were then treated with 25 μg/ml MP1102, NZ2114 and vancomycin for 12 h and 24 h. Cell-free culture supernatants were collected and the concentrations of cytokines (TNF-α, IL-1β and IL-10) were determined by Jiaxuan Biotech. Co. Ltd. (Beijing, China) using an ELISA kit[58],[59].

S. aureus in THP-1 cells = conditions: against MRSA in THP-1 cells; cited from earlier work
Excerpt: (§1) This study is the first evaluation of the intracellular anti-staphylococcal properties of the NZ2114 derivative MP1102 using both in vitro and in vivo methods. […] As a corresponding in vivo mouse model, RAW 264.7 macrophages were chosen to evaluate in vitro intracellular activity in this study.

MRSA = conditions: against MRSA; cited from earlier work
Excerpt: as §1

CC[C@H](C)[C@@H]1NC(=O)[C@H](CO)NC(=O)[C@H](CCCCN)NC(=O)[C@@H]2CSSC[C@@H](C(=O)N[C@@H](Cc3ccc(O)cc3)C(=O)O)NC(=O)[C@H](CCCCN)NC(=O)[C@@H]3CSSC[C@H](NC(=O)[C@H](CCCNC(=N)N)NC(=O)[C@H](CC(C)C)NC(=O)[C@H](CC(=O)O)NC(=O)[C@H](CC(=O)O)NC(=O)[C@H](CCC(=O)O)NC(=O)[C@H](CC(N)=O)NC(=O)[C@H](Cc4c[nH]c5ccccc45)NC(=O)[C@@H]4CCCN4C(=O)CNC(=O)[C@H](CC(N)=O)NC(=O)[C@@H](NC(=O)CNC(=O)[C@H](Cc4ccccc4)NC(=O)CN)CSSC[C@H](NC(=O)[C@H](Cc4ccc(O)cc4)NC(=O)CNC(=O)CNC(=O)[C@H](CCCCN)NC(=O)[C@H](Cc4ccc(O)cc4)NC(=O)CNC(=O)[C@H](CCCCN)NC1=O)C(=O)N[C@@H](C)C(=O)N[C@@H](CCCCN)C(=O)NCC(=O)NCC(=O)N[C@@H](Cc1ccccc1)C(=O)N[C@@H](C(C)C)C(=O)N3)C(=O)N[C@@H](Cc1c[nH]cn1)C(=O)N[C@@H](CC(N)=O)C(=O)N[C@@H](Cc1c[nH]cn1)C(=O)N2 [NZ2114]
colonies on the plates (MSSA ATCC25923): no colonies were observed
suppressed production of IL-1β (IL-1β): 18.7 to 49.5 pg/mL
relative Emax, intracellular (S. aureus in THP-1 cells): 0.93 log CFU
relative Emax, extracellular (MRSA): 4.58 log CFU
